What was measured:
[1] = tested on: COX-1/2; assay: Activity assay of COX-1/2 (mixture of equal amounts of COX-1 and COX-2, Cayman COX inhibitor screening kit); conditions: compound at 100 µM, equal amounts of COX-1 and COX-2 in terms of enzyme activities
[2] = biological target: mouse mPGES-1 (Mus musculus, UniProt Q9JM51); assay: Activity assay using recombinant mouse mPGES-1 (PGE2 enzyme immunoassay); conditions: read-out: IC50 (nM) against mPGES-1, Mouse mPGES-1; Mean ± SD of measurements in triplicate

Protein sequences, listed by entry. Tags and fused reporters are not part of them.
UniProt Q9JM51, whole entry: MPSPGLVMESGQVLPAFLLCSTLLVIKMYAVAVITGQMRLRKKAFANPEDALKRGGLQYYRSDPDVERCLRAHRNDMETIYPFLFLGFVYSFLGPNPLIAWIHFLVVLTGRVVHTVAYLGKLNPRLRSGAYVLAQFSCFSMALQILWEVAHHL

SMILES	COX-1/2 Inhibition (%) at 100 µM [1]	COX-1/2 Inhibition (%) at 100 µM ([1]; listed as 4 g)	IC50 [2]
CCOc1cc(C=C2C(=O)NC(=O)NC2=O)ccc1OCCCCC1CCCCC1	0 ± 15.1%	did not significantly inhibit	
Cc1cc(C=C2C(=O)NC(=O)NC2=O)ccc1OCCCCC1CCCCC1			18900 nM
O=C1NC(=O)C(=Cc2ccc(OCCCCC3CCCCC3)c([N+](=O)[O-])c2)C(=O)N1			698 nM
O=C1NC(=O)C(=Cc2ccc(OCCCCC3CCCCC3)c(Br)c2)C(=O)N1			917 nM

Source: paper PMC5979965, “Structure-based discovery of mPGES-1 inhibitors suitable for preclinical testing in wild-type mice as a new generation of anti-inflammatory drugs” (Scientific Reports, 2018)
